# Ab-95 light chain CDR variants: yeast mating affinities

Data: MIT Lincoln Laboratory AlphaSeq set, Engelhart et al. 2022, doi:10.1038/s41597-022-01779-4, as distributed in FLAb.

Target peptide (SARS-CoV-2 spike, HR2 region): PDVDLGDISGINAS

Parent: Ab-95, a human scFv built as VH, a 15-residue (Gly4Ser)3 linker, VL. Only the CDRs of the light chain vary.
VH: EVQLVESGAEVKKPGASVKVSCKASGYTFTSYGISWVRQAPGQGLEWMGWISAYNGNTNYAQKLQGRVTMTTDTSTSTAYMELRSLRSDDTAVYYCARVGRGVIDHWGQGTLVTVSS
VL: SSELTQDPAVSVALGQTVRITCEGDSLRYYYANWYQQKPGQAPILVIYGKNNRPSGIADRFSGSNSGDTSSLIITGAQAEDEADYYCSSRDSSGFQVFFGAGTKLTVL

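The starting antibody came from a phage panning campaign against this peptide. Library AAYL52 holds single substitutions and randomly drawn double and triple substitutions in the CDRs. Affinity was read by AlphaSeq, a pooled yeast mating assay with surface-displayed partners. Mating (16 h, 30 °C) was followed by selection of diploids and sequencing of their barcodes. The ratio of observed to expected reads was calibrated, replicate by replicate, on BCL2-family standards whose Kd was known from biolayer interferometry. Each pool was mated in three replicate cultures.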

Positions count from residue 1 of the parent VL; S92Q puts Q in place of S.
Only single mutants are listed, position by position.
Affinities are written as log10 Kd with Kd in nM; a lower number is a better binder.
Averages over replicates are reported, and they cover detected replicates only.
An entry "nd" has no value in the source: the pair was not observed among the diploids in any replicate. This suggests poor binding but is not conclusive.
In this assay the parent's reference entry averaged 2.31; its copy inside this library read 2.25.
As a blank, each scFv also met three strains without target: over library AAYL52, 28% of these pairings were detected, typically at 3.91 and seldom below 2.90. For each scFv, signals with the empty controls are counted beside the result.

Variant S92Q showed 2.08 (3 of 3 replicates; controls 2 of 9).
Variant S92T showed 2.29 (3 of 3 replicates; controls 4 of 9).
Variant S92Y showed 2.32 (3 of 3 replicates; controls 5 of 9).
Variant S92M showed 2.38 (3 of 3 replicates; controls 0 of 9).
Variant S92E showed 1.53 (3 of 3 replicates; controls 2 of 9).
Variant S92D showed 1.90 (3 of 3 replicates; controls 4 of 9).
Variant S92I showed 2.90 (3 of 3 replicates; controls 2 of 9).
Variant S92R showed 2.33 (3 of 3 replicates; controls 0 of 9).
Variant S92F showed 2.22 (3 of 3 replicates; controls 2 of 9).
Variant S93K showed 3.38 (3 of 3 replicates; controls 1 of 9).
Variant S93E showed 2.28 (3 of 3 replicates; controls 1 of 9).
Variant S93V showed 3.86 (3 of 3 replicates; controls 6 of 9).
Variant S93A showed 2.35 (3 of 3 replicates; controls 4 of 9).
Variant S93P showed 2.18 (3 of 3 replicates; controls 2 of 9).
Variant S93D showed 2.48 (3 of 3 replicates; controls 3 of 9).
Variant S93W showed 2.10 (3 of 3 replicates; controls 3 of 9).
Variant S93Y showed nd (0 of 3 replicates; controls 0 of 9).
Variant S93R showed 3.34 (2 of 3 replicates; controls 1 of 9).
Variant S93C showed 2.97 (3 of 3 replicates; controls 2 of 9).
Variant S93H showed 2.35 (3 of 3 replicates; controls 6 of 9).
Variant S93M showed 2.45 (3 of 3 replicates; controls 1 of 9).
Variant S93I showed 2.17 (3 of 3 replicates; controls 1 of 9).
Variant S93Q showed 1.44 (3 of 3 replicates; controls 1 of 9).
Variant S93G showed 3.27 (3 of 3 replicates; controls 1 of 9).
Variant S93F showed 2.95 (3 of 3 replicates; controls 6 of 9).
Variant S93N showed 2.15 (3 of 3 replicates; controls 2 of 9).
Variant S93T showed 1.98 (3 of 3 replicates; controls 1 of 9).
Variant S93L showed 2.41 (3 of 3 replicates; controls 6 of 9).
Variant G94V showed 3.11 (3 of 3 replicates; controls 2 of 9).
Variant G94H showed 3.14 (2 of 3 replicates; controls 2 of 9).
Variant G94Q showed 2.64 (3 of 3 replicates; controls 2 of 9).
Variant G94N showed 1.73 (3 of 3 replicates; controls 0 of 9).
Variant G94F showed 2.30 (3 of 3 replicates; controls 3 of 9).
Variant G94P showed 2.35 (3 of 3 replicates; controls 5 of 9).
Variant G94R showed 4.51 (3 of 3 replicates; controls 4 of 9).
Variant G94E showed 2.37 (3 of 3 replicates; controls 1 of 9).
Variant G94K showed 2.92 (3 of 3 replicates; controls 2 of 9).
Variant G94L showed 2.96 (3 of 3 replicates; controls 1 of 9).
Variant G94A showed 2.23 (3 of 3 replicates; controls 2 of 9).
Variant G94M showed 2.41 (3 of 3 replicates; controls 2 of 9).
Variant G94C showed 2.18 (3 of 3 replicates; controls 3 of 9).
Variant G94Y showed 2.36 (3 of 3 replicates; controls 2 of 9).
Variant G94W showed 2.31 (3 of 3 replicates; controls 0 of 9).

Picked from the list: the 4 lowest averages where every replicate gave a value.

{"changes": "S93Q", "log10 Kd (nM), mean": "1.44", "detected": "3/3", "signal with controls": "1/9"}
{"changes": "S92E", "log10 Kd (nM), mean": "1.53", "detected": "3/3", "signal with controls": "2/9"}
{"changes": "G94N", "log10 Kd (nM), mean": "1.73", "detected": "3/3", "signal with controls": "0/9"}
{"changes": "S92D", "log10 Kd (nM), mean": "1.90", "detected": "3/3", "signal with controls": "4/9"}